PubChem BioAssay (NCI)
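Where inhibition never reached the appropriate level, the endpoint shown equals the highest concentration tested. Otherwise, values were interpolated linearly from a five-concentration, 48-hour dose response in 96-well plates. The concentration for 50% growth inhibition is given as GI50. TGI is the concentration that stops growth completely.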

What was measured:
Assay in all cases: inhibition of tumour cell growth, NCI panel, 48 h
786-0 renal = tested on: 786-0 renal
A498 renal = tested on: A498 renal
A549 NSCLC = tested on: A549 NSCLC
ACHN renal = tested on: ACHN renal
CAKI-1 renal = tested on: CAKI-1 renal
CCRF-CEM leukemia = tested on: CCRF-CEM leukemia
COLO 205 colon = tested on: COLO 205 colon
DLD-1 colon = tested on: DLD-1 colon
DMS 114 small cell lung = tested on: DMS 114 small cell lung
DMS 273 small cell lung = tested on: DMS 273 small cell lung
EKVX NSCLC = tested on: EKVX NSCLC
HCC-2998 colon = tested on: HCC-2998 colon
HCT-116 colon = tested on: HCT-116 colon
HCT-15 colon = tested on: HCT-15 colon
HL-60(TB) leukemia = tested on: HL-60(TB) leukemia
HOP-18 NSCLC = tested on: HOP-18 NSCLC
HOP-62 NSCLC = tested on: HOP-62 NSCLC
HOP-92 NSCLC = tested on: HOP-92 NSCLC
HT29 colon = tested on: HT29 colon
IGROV1 ovarian = tested on: IGROV1 ovarian
K-562 leukemia = tested on: K-562 leukemia
KM12 colon = tested on: KM12 colon
KM20L2 colon = tested on: KM20L2 colon
LOX IMVI melanoma = tested on: LOX IMVI melanoma
LXFL 529 NSCLC = tested on: LXFL 529 NSCLC
M19-MEL melanoma = tested on: M19-MEL melanoma
MALME-3M melanoma = tested on: MALME-3M melanoma
MOLT-4 leukemia = tested on: MOLT-4 leukemia
NCI-H226 lung = tested on: NCI-H226 lung
NCI-H23 lung = tested on: NCI-H23 lung
NCI-H322M lung = tested on: NCI-H322M lung
NCI-H460 lung = tested on: NCI-H460 lung
NCI-H522 lung = tested on: NCI-H522 lung
OVCAR-3 ovarian = tested on: OVCAR-3 ovarian
OVCAR-4 ovarian = tested on: OVCAR-4 ovarian
OVCAR-5 ovarian = tested on: OVCAR-5 ovarian
OVCAR-8 ovarian = tested on: OVCAR-8 ovarian
RPMI-8226 leukemia = tested on: RPMI-8226 leukemia
RXF-631 renal = tested on: RXF-631 renal
SF-268 CNS = tested on: SF-268 CNS
SF-295 CNS = tested on: SF-295 CNS
SF-539 CNS = tested on: SF-539 CNS
SK-MEL-2 melanoma = tested on: SK-MEL-2 melanoma
SK-MEL-28 melanoma = tested on: SK-MEL-28 melanoma
SK-MEL-5 melanoma = tested on: SK-MEL-5 melanoma
SK-OV-3 ovarian = tested on: SK-OV-3 ovarian
SN12C renal = tested on: SN12C renal
SNB-19 CNS = tested on: SNB-19 CNS
SNB-75 CNS = tested on: SNB-75 CNS
SNB-78 CNS = tested on: SNB-78 CNS
SW-620 colon = tested on: SW-620 colon
TK-10 renal = tested on: TK-10 renal
U251 CNS = tested on: U251 CNS
UACC-257 melanoma = tested on: UACC-257 melanoma
UACC-62 melanoma = tested on: UACC-62 melanoma
UO-31 renal = tested on: UO-31 renal
XF 498 CNS = tested on: XF 498 CNS

Work on O=P1(Oc2ccccc2)NNP2(=NP(Cl)(Cl)=NP(Cl)(Cl)=N2)NN1 (centres undefined) yielded a GI50 (786-0 renal) of over 100 µM, a TGI (786-0 renal) of over 100 µM and a GI50 (A498 renal) of over 100 µM. The TGI (A498 renal) was over 100 µM, the GI50 (A549 NSCLC) was over 100 µM and the TGI (A549 NSCLC) was over 100 µM. It also gave a GI50 (ACHN renal) of over 100 µM, a TGI (ACHN renal) of over 100 µM and a GI50 (CAKI-1 renal) of over 100 µM. The TGI (CAKI-1 renal) was over 100 µM, the GI50 (CCRF-CEM leukemia) was over 100 µM and the TGI (CCRF-CEM leukemia) was over 100 µM. The GI50 (COLO 205 colon) was over 100 µM, the TGI (COLO 205 colon) was over 100 µM and the GI50 (DLD-1 colon) was over 100 µM. For the same compound, the TGI (DLD-1 colon) was over 100 µM, the GI50 (DMS 114 small cell lung) was over 100 µM and the TGI (DMS 114 small cell lung) was over 100 µM. It also gave a GI50 (DMS 273 small cell lung) of over 100 µM, a TGI (DMS 273 small cell lung) of over 100 µM and a GI50 (EKVX NSCLC) of over 100 µM. The TGI (EKVX NSCLC) was over 100 µM, the GI50 (HCC-2998 colon) was over 100 µM and the TGI (HCC-2998 colon) was over 100 µM. For the same compound, the GI50 (HCT-116 colon) was over 100 µM, the TGI (HCT-116 colon) was over 100 µM and the GI50 (HCT-15 colon) was over 100 µM. For the same compound, the TGI (HCT-15 colon) was over 100 µM, the GI50 (HL-60(TB) leukemia) was over 100 µM and the TGI (HL-60(TB) leukemia) was over 100 µM. The GI50 (HOP-18 NSCLC) was over 100 µM, the TGI (HOP-18 NSCLC) was over 100 µM and the GI50 (HOP-62 NSCLC) was over 100 µM. It also gave a TGI (HOP-62 NSCLC) of over 100 µM, a GI50 (HOP-92 NSCLC) of over 100 µM and a TGI (HOP-92 NSCLC) of over 100 µM. The GI50 (HT29 colon) was over 100 µM, the TGI (HT29 colon) was over 100 µM and the GI50 (IGROV1 ovarian) was over 100 µM. The TGI (IGROV1 ovarian) was over 100 µM, the GI50 (K-562 leukemia) was over 100 µM and the TGI (K-562 leukemia) was over 100 µM. For the same compound, the GI50 (KM12 colon) was over 100 µM, the TGI (KM12 colon) was over 100 µM and the GI50 (KM20L2 colon) was over 100 µM. It also gave a TGI (KM20L2 colon) of over 100 µM, a GI50 (LOX IMVI melanoma) of over 100 µM and a TGI (LOX IMVI melanoma) of over 100 µM. For the same compound, the GI50 (LXFL 529 NSCLC) was over 100 µM, the TGI (LXFL 529 NSCLC) was over 100 µM and the GI50 (M19-MEL melanoma) was over 100 µM. It also gave a TGI (M19-MEL melanoma) of over 100 µM, a GI50 (MALME-3M melanoma) of over 100 µM and a TGI (MALME-3M melanoma) of over 100 µM. For the same compound, the GI50 (MOLT-4 leukemia) was over 100 µM, the TGI (MOLT-4 leukemia) was over 100 µM and the GI50 (NCI-H226 lung) was over 100 µM. It also gave a TGI (NCI-H226 lung) of over 100 µM, a GI50 (NCI-H23 lung) of over 100 µM and a TGI (NCI-H23 lung) of over 100 µM. The GI50 (NCI-H322M lung) was over 100 µM, the TGI (NCI-H322M lung) was over 100 µM and the GI50 (NCI-H460 lung) was over 100 µM. It also gave a TGI (NCI-H460 lung) of over 100 µM, a GI50 (NCI-H522 lung) of over 100 µM and a TGI (NCI-H522 lung) of over 100 µM. It also gave a GI50 (OVCAR-3 ovarian) of over 100 µM, a TGI (OVCAR-3 ovarian) of over 100 µM and a GI50 (OVCAR-4 ovarian) of over 100 µM. For the same compound, the TGI (OVCAR-4 ovarian) was over 100 µM, the GI50 (OVCAR-5 ovarian) was over 100 µM and the TGI (OVCAR-5 ovarian) was over 100 µM. It also gave a GI50 (OVCAR-8 ovarian) of over 100 µM, a TGI (OVCAR-8 ovarian) of over 100 µM and a GI50 (RPMI-8226 leukemia) of over 100 µM. For the same compound, the TGI (RPMI-8226 leukemia) was over 100 µM, the GI50 (RXF-631 renal) was over 100 µM and the TGI (RXF-631 renal) was over 100 µM. The GI50 (SF-268 CNS) was over 100 µM, the TGI (SF-268 CNS) was over 100 µM and the GI50 (SF-295 CNS) was over 100 µM. The TGI (SF-295 CNS) was over 100 µM, the GI50 (SF-539 CNS) was over 100 µM and the TGI (SF-539 CNS) was over 100 µM. It also gave a GI50 (SK-MEL-2 melanoma) of over 100 µM, a TGI (SK-MEL-2 melanoma) of over 100 µM and a GI50 (SK-MEL-28 melanoma) of over 100 µM. It also gave a TGI (SK-MEL-28 melanoma) of over 100 µM, a GI50 (SK-MEL-5 melanoma) of over 100 µM and a TGI (SK-MEL-5 melanoma) of over 100 µM. The GI50 (SK-OV-3 ovarian) was over 100 µM, the TGI (SK-OV-3 ovarian) was over 100 µM and the GI50 (SN12C renal) was over 100 µM. The TGI (SN12C renal) was over 100 µM, the GI50 (SNB-19 CNS) was over 100 µM and the TGI (SNB-19 CNS) was over 100 µM. For the same compound, the GI50 (SNB-75 CNS) was over 100 µM, the TGI (SNB-75 CNS) was over 100 µM and the GI50 (SNB-78 CNS) was over 100 µM. For the same compound, the TGI (SNB-78 CNS) was over 100 µM, the GI50 (SW-620 colon) was over 100 µM and the TGI (SW-620 colon) was over 100 µM. It also gave a GI50 (TK-10 renal) of over 100 µM, a TGI (TK-10 renal) of over 100 µM and a GI50 (U251 CNS) of over 100 µM. The TGI (U251 CNS) was over 100 µM, the GI50 (UACC-257 melanoma) was over 100 µM and the TGI (UACC-257 melanoma) was over 100 µM. The GI50 (UACC-62 melanoma) was over 100 µM, the TGI (UACC-62 melanoma) was over 100 µM and the GI50 (UO-31 renal) was over 100 µM. The TGI (UO-31 renal) was over 100 µM, the GI50 (XF 498 CNS) was over 100 µM and the TGI (XF 498 CNS) was over 100 µM.
